Reference: patent US20070155739A1, “Substituted bis-amide metalloprotease inhibitors” (ALANTOS PHARMACEUTICALS, INC., priority 2005, published 2007)

Target: MMP-13 (Homo sapiens, UniProt P45452)
Assay: Assay for determining MMP-13 inhibition (fluorogenic substrate)
Conditions: read-out: IC50 (nM), Summary of MMP-13 Activity for Compounds of Formula I; Table 1; tested form: TFA
Experimental: The MMP-13 inhibiting activity of the bis-amide metalloprotease inhibiting compounds of the present invention may be measured using any suitable assay known in the art. A standard in vitro assay for MMP-13 inhibiting activity is described in Example 999 and a description of the microsomal stability assay is described in Example 999a.
Assay for Determining MMP-13 Inhibition
The typical assay for MMP-13 activity is carried out in assay buffer comprised of 50 mM Tris, pH 7.5, 150 mM NaCl, 5 mM CaCl2 and 0.05% Brij-35. Different concentrations of tested compounds are prepared in assay buffer in 50 μL aliquots. 10 μL of 40 nM stock solution of MMP-13 enzyme is added to the compound solution. The mixture of enzyme and compound in assay buffer is thoroughly mixed and incubated for 20 minutes at room temperature. Upon the completion of incubation, the assay is started by addition of 40 μL of 12.5 μM stock solution of MMP-13 fluorogenic substrate (Calbiochem Cat. No. 444235). The time-dependent increase in fluorescence is measured at the 325 nm excitation and 393 nm emission by automatic plate multireader. The IC50 values are calculated from the initial reaction rates. Selectivity assays were run in a similar manner using MMP-1, MMP-3, MMP-8, MMP-12, MMP-14 and TACE.

In the case of `C[C@H](NC(=O)c1cc(C(=O)NCc2ccc(F)cc2)ncn1)c1ccc(-c2nnn(CC(=O)O)n2)cc1`, the IC50 is reported as < 1000 nM.
